Measurements taken from patent US20050009748A1, “Compositions for delivering peptide YY and PYY agonists” (Emisphere Technologies, Inc., priority 2003, published 2005).

Assay: Solid oral delivery of PYY[3-36] in feed restricted rats (serum PYY radioimmunoassay)
Format: in vivo, Male Sprague Dawley rats
Conditions: 1 tablet per animal, Delivery Agent 50 mg/kg, PYY[3-36] 0.3 mg/kg
Description: An oral dosing tube was used.
Blood samples were collected serially from the tail artery, by cardiac puncture, or as in this case by retro-orbitally, typically at time=0, 15, 30, 60 and 90 minutes.

In the case of `O=C(O)CCCCCCCNC(=O)c1ccccc1O` [Delivery Agent 1, N-(8-[2-hydroxybenzoyl]-amino)caprylic acid], the “Mean serum peak of PYY (pg/ml) ± SD” value is reported as 511.5 ± 493.5 pg/mL.
